The results in this text go back to US11795163B2, “Compound for inhibiting nicotinamide phosphoribosyltransferase and composition containing same” (CHECKMATE THERAPEUTICS INC., priority 2016, dated 2023).

Sequences of proteins named here, by UniProt entry; tags and fusion partners are left off. A change or cut given only in a name is not applied to a line headed by its entry.
UniProt P43490: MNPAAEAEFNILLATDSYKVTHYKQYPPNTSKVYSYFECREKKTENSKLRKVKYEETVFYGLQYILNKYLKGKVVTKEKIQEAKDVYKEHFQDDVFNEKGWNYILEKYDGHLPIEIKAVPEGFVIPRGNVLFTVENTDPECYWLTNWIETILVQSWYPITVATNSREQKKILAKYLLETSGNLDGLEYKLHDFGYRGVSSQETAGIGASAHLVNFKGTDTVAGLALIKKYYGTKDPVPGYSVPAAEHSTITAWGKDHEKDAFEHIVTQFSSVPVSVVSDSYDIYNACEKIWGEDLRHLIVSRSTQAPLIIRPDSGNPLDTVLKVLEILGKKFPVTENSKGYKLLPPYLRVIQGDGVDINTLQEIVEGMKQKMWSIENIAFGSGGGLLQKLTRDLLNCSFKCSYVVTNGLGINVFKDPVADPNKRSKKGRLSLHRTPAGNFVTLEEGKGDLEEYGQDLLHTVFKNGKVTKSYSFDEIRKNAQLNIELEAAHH

This test addresses NamPT recombinant protein (Homo sapiens, UniProt P43490).

Where two headings read alike, the source gives them in different places.

Turning to `O=C(/C=C/c1cccnc1)NCCCCC1CCN(C(=O)c2ccccc2)CC1` [FK866, N-[4-(1-benzoyl-4-piperidinyl)butyl]-3-(3-pyridinyl)-2E-propenamide], the “reversible or irreversible inhibition of NamPT” value is given as “irreversible inhibition”. The NamPT inhibition result (4 nM (diluted 5 times)) is recorded as “not inhibited”. Moreover, the NamPT inhibition entry (20 nM) is “full inhibition capacity”.
